Measured values: patent publication US20230087342A1, “AZEPANE DERIVATIVE” (Nippon Chemiphar Co., Ltd., priority 2019, published 2023)

Chains of the proteins cited; added tags and fusions are not shown.
UniProt P41145, whole entry: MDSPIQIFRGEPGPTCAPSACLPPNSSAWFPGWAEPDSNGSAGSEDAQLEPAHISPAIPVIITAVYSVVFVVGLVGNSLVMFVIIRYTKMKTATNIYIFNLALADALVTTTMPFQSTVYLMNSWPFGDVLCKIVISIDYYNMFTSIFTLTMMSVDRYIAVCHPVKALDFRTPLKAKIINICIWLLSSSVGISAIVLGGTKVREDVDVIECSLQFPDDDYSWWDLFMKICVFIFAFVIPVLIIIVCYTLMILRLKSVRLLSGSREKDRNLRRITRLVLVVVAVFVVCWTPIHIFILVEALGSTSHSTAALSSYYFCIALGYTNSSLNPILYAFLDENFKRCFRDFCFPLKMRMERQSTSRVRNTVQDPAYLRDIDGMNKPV

Target: human κ opioid receptors (Homo sapiens, UniProt P41145)
Experiment: Opioid receptor function test (Lance Ultra cAMP kit, agonist activity)
Details: read-out: EC50 value, CHO cells expressing human κ opioid receptors, 10 μM forskolin, 30 minutes
Procedure: Opioid Receptor Function Test
The function activity of the compound of the present invention on κ opioid receptors was examined.
Method: Using a Lance Ultra cAMP kit (Perkin Elmer), the examination was performed according to a predetermined method. In evaluation of agonist activity, CHO cells expressing human κ opioid receptors (Catalog No. CT6606, accession No. NM_000912) and a test compound were reacted in an assay buffer (1×HSS, 5 mM HEPES, pH 7.4, 0.5 mM IBMX (isobutylmethyixanthine), 0.1% SA) in the presence of 10 μM forskolin for 30 minutes. Subsequently, a cAMP detection reagent in the kit was added. One hour later, time-resolved fluorescence measurement was performed using an EnVision plate reader (Perkin Elmer). The evaluation of the test compound was performed in a concentration range of 10^−14 to 10^−7 M for the κ opioid receptor function test.

SMILES	EC50 [pM]
Cc1cnn(C[C@H](C)N2CC[C@]34CCN(CC5CC5)[C@H](Cc5ccc(O)cc53)[C@]4(O)CC2)c1	10
C=CCN1CC[C@]23CCN(CCn4cc(C)cn4)CC[C@@]2(O)[C@H]1Cc1ccc(O)cc13	220
